Results reported in patent US5030649A, “2-aminoethylamine derivatives, compositions of the same and use of said compounds in medicine” (dated 1991).

Test: Mouse tail-flick test (analgesic activity, subcutaneous)
Details: subcutaneous in isotonic saline, 30 min after dosing, activity = percent of mice doubling initial reaction time

For `CN(C(=O)Cc1ccc(Cl)c(Cl)c1)[C@@H](Cc1ccccc1)CN1CCCC1`, which “MOUSE TAIL-FLICK ED50 SUBCUTANEOUS” value is on record?
The value was over 10 mg/kg.

For `CN(C(=O)Cc1ccc2c(c1)CCCC2)[C@H](CN1CCCC1)c1ccccc1`, which “MOUSE TAIL-FLICK ED50 SUBCUTANEOUS” value is on record?
Its value is 0.149 mg/kg.

Which “MOUSE TAIL-FLICK ED50 SUBCUTANEOUS” value does the source give for `CN(C(=O)Cc1cccc(C(F)(F)F)c1)[C@H](CN1CCCC1)c1ccccc1` here?
The value was 0.097 mg/kg.
